In the experiment the target is GST-CaMKIIαCD (L91-S272) (rat, UniProt P11275 91-272). In words: pull-down.

The chains behind the UniProt entries cited, without tags or fusion partners. Residues count along the entry.
UniProt P11275, 91-272: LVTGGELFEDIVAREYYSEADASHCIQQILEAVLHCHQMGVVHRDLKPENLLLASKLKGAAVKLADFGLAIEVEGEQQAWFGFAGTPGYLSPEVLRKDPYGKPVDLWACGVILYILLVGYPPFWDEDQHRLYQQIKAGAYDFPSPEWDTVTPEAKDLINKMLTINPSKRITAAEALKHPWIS

B1: D3RIL3 (R210-Q375), released from GST by thrombin (domain or fragment, rat, UniProt P19020 210-375, looked up)
chain: RIYIVLRQRQRKRILTRQNSQCISIRPGFPQQSSCLRLHPIRQFSIRARFLSDATGQMEHIEDKQYPQKCQDPLLSHLQPPSPGQTHGGLKRYYSICQDTALRHPSLEGGAGMSPVERTRNSLSPTMAPKLSLEVRKLSNGRLSTSLRLGPLQPRGVPLREKKATQ
Take B1: the binding result is listed as “binds”.

The values above are taken from article PMC2650276 (Neuron, 2009).
